Source: PubChem BioAssay AID2331 (The Scripps Research Institute Molecular Screening Center, 2010)
Only a part is listed here, and it is no random draw. Activity calls are given as the source filed them. Cut-off read from the data, not from the text of the source: active = inhibition above about 9.5%; inactive = the rest.

By UniProt entry, the sequences of proteins in these tests, tags left out. Where a name states a change or a piece, a line headed by the entry shows the natural chain unless it says otherwise.
UniProt P53041: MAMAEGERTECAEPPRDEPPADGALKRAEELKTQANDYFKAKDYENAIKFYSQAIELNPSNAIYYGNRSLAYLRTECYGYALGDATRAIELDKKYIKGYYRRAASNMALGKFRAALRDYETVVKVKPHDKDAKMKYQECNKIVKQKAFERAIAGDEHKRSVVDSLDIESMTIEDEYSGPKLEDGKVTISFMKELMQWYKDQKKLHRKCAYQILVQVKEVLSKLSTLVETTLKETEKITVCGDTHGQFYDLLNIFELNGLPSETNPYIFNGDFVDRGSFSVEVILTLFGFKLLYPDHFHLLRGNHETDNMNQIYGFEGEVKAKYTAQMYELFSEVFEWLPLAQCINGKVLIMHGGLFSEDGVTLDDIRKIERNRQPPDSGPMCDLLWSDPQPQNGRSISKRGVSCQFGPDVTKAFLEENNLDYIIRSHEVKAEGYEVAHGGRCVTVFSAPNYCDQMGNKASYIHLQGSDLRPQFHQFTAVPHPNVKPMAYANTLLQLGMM

Biological target: Serine/threonine-protein phosphatase 5 (Homo sapiens) (UniProt P53041)
Assay: inhibition of human PPP5C phosphatase activity – biochemical, fluorescence, confirmation (AID 2331)
Conditions: Purified PP5, fluorogenic phosphatase substrate, at 6.7 µM, stronger effect = higher value

CN(C(=O)Cc1ccc(Cl)c(Cl)c1)[C@H]1CCCC[C@H]1N1CCCC1
inhibition: inactive: 6.5%
